The results in this text go back to US6384051B1, “Method of treating or inhibiting colonic polyps” (American Cyanamid Company, priority 2000, dated 2002).

In one test the test system is min mouse. Put plainly: in vivo standard pharmacological test procedure emulating familial adenomatous polyps (FAP): min mouse, compound blended in chow for 60 days, polyp number at day 61. Here is the method:
The compound of Example 399 was evaluated in this procedure, which emulates familial adenomatous polyps (FAP) in humans, as a representative compound of this invention. The min mouse used in this test procedure, currently the best available model for FAP, is a strain that has lost both copies of the APC gene. These animals develop multiple intestinal polyps (adenomas). The polyps that develop in min mice express EGFR and have activated COX-2. […] The following briefly describes the procedure used and the results obtained in this standard pharmacological test procedure.
The compound of Example 399 was blended with a standard murine chow and animals were given ad libitum access to the food for 60 days. Based on estimated food consumption, the compound of Example 399 was added at concentration commensurate with animals ingesting either 5 mg/kg/day or 150 mg/kg/day. At day 61, 10-15 animals in each treatment group+10-15 control (chow alone) animals corresponding to each treatment group were sacrificed and assessed for polyp number. The following table summarizes the results.

Test [1] has as its system Min mouse (C57BL/6J-Min/+). Put plainly: in vivo test procedure emulating FAP: Min mouse (C57BL/6J-Min/+), compound blended with AIN-93G chow for 60 days, intestinal polyps counted on day 61. The text has this:
The procedure described below emulates familial adenomatous polyps (FAP) in humans using the Min mouse (C57BL/6J-Min/+), which is a strain of mice that has a mutation in the APC (Adenomatous Polyposis Coli) Gene. These animals develop multiple intestinal polyps (adenomas) when raised on a high fat diet that ultimately lead to death by 120 days of age due to anemia and or intestinal blockage. The polyps that develop in Min mice express EGFR and have activated COX-2. The following briefly describes the procedure used and the results obtained in this standard pharmacological test procedure.
Test animals were divided into two treatment groups: Group I, control and Group II, (4-dimethylamino-but-2-enoic acid [4-(3-chloro-4-fluoro-phenylamino)-3-cyano-7-ethoxy-quinolin-6-yl]-amide. The test compound administered to Group II was blended with AIN-93G murine chow (Bioserve, Frenchtown, N.J.) and animals were given ad libitum access to the food, in quantities corresponding to the approximate daily dose of 20 mg/kg (4-dimethylamino-but-2-enoic acid [4-(3-chloro-4-fluoro-phenylamino)-3-cyano-7-ethoxy-quinolin-6-yl]-amide. The animals were treated for 60 days. The food was weighed once per week to determine consumption, and the animals also weighed weekly. […] The intestinal tracts were then opened and the number of polyps counted. […]

Each structure is given as a SMILES string.

For `CCOc1cc2ncc(C#N)c(Nc3ccc(F)c(Cl)c3)c2cc1NC(=O)C=CCN(C)C` [Example 399, 4-Dimethylamino-but-2-enoic acid [4-(3-chloro-4-fluoro-phenylamino)-3-cyano-7-ethoxy-quinolin-6-yl]-amide], the “Mean # Polyps ± S.D.” value with min mouse (Group I, 5 mg/kg/day in chow ad libitum, control 32.6 ± 19.1) is 15.6 ± 6.0; with min mouse (Group II, 150 mg/kg/day in chow ad libitum, control 19.5 ± 14.1) it was 2.6 ± 1.6. Besides, the “reduced polyp numbers when compared to the AIN-93G control diet alone” value in test [1] (approximate daily dose of 20 mg/kg) amounted to 87%. In addition, in test [1] (approximate daily dose of 20 mg/kg in AIN-93G chow, control (Group I) 19.5 ± 14.1), the “Number of Polyps” value is given as 2.6 ± 1.6.
